Results as given in PubChem BioAssay (NCI).
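Five concentrations, 48 hours, 96-well plates. Here, GI50 denotes the concentration required for 50% inhibition of growth. TGI is the concentration that stops growth completely.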

Tests used:
Assay in all cases: inhibition of tumour cell growth, NCI panel, 48 h
[1] = system: UO-31 renal
[2] = system: RXF 393 renal
[3] = system: HCT-116 colon
[4] = system: HCC-2998 colon
[5] = system: MALME-3M melanoma
[6] = system: SK-MEL-28 melanoma
[7] = system: UACC-62 melanoma
[8] = system: HL-60(TB) leukemia
[9] = system: U251 CNS
[10] = system: SNB-19 CNS
[11] = system: MDA-MB-435
[12] = system: A498 renal
[13] = system: SK-OV-3 ovarian
[14] = system: DU-145 prostate
[15] = system: OVCAR-3 ovarian
[16] = system: NCI-H322M lung
[17] = system: RPMI-8226 leukemia
[18] = system: MOLT-4 leukemia
[19] = system: LOX IMVI melanoma
[20] = system: TK-10 renal
[21] = system: M14 melanoma
[22] = system: HT29 colon
[23] = system: ACHN renal
[24] = system: NCI-H460 lung
[25] = system: SNB-75 CNS
[26] = system: HCT-15 colon
[27] = system: NCI-H23 lung
[28] = system: UACC-257 melanoma
[29] = system: SR leukemia
[30] = system: T-47D breast
[31] = system: K-562 leukemia
[32] = system: SF-539 CNS
[33] = system: EKVX NSCLC
[34] = system: NCI-H226 lung
[35] = system: NCI-H522 lung
[36] = system: BT-549 breast
[37] = system: SN12C renal
[38] = system: MCF7 breast
[39] = system: SK-MEL-2 melanoma
[40] = system: MDA-MB-231 breast
[41] = system: MDA-N
[42] = system: OVCAR-5 ovarian
[43] = system: HS 578T breast
[44] = system: HOP-62 NSCLC
[45] = system: CCRF-CEM leukemia
[46] = system: KM12 colon

Structure (SMILES): CCOP(C)(=O)OC(C(F)(F)F)C(F)(F)F (configuration not stated)
- GI50 [1]: > 100 µM
- TGI [1]: > 100 µM
- GI50 [2]: > 100 µM
- TGI [2]: > 100 µM
- GI50 [3]: > 100 µM
- TGI [3]: > 100 µM
- GI50 [4]: > 100 µM
- TGI [4]: > 100 µM
- GI50 [5]: > 100 µM
- TGI [5]: > 100 µM
- GI50 [6]: > 100 µM
- TGI [6]: > 100 µM
- GI50 [7]: > 100 µM
- TGI [7]: > 100 µM
- GI50 [8]: > 100 µM
- TGI [8]: > 100 µM
- GI50 [9]: > 100 µM
- TGI [9]: > 100 µM
- GI50 [10]: > 100 µM
- TGI [10]: > 100 µM
- GI50 [11]: > 100 µM
- TGI [11]: > 100 µM
- GI50 [12]: > 100 µM
- TGI [12]: > 100 µM
- GI50 [13]: > 100 µM
- TGI [13]: > 100 µM
- GI50 [14]: > 100 µM
- TGI [14]: > 100 µM
- GI50 [15]: > 100 µM
- TGI [15]: > 100 µM
- GI50 [16]: > 100 µM
- TGI [16]: > 100 µM
- GI50 [17]: > 100 µM
- TGI [17]: > 100 µM
- GI50 [18]: > 100 µM
- TGI [18]: > 100 µM
- GI50 [19]: > 100 µM
- TGI [19]: > 100 µM
- GI50 [20]: > 100 µM
- TGI [20]: > 100 µM
- GI50 [21]: > 100 µM
- TGI [21]: > 100 µM
- GI50 [22]: > 100 µM
- TGI [22]: > 100 µM
- GI50 [23]: > 100 µM
- TGI [23]: > 100 µM
- GI50 [24]: > 100 µM
- TGI [24]: > 100 µM
- GI50 [25]: > 100 µM
- TGI [25]: > 100 µM
- GI50 [26]: > 100 µM
- TGI [26]: > 100 µM
- GI50 [27]: > 100 µM
- TGI [27]: > 100 µM
- GI50 [28]: > 100 µM
- TGI [28]: > 100 µM
- GI50 [29]: > 100 µM
- TGI [29]: > 100 µM
- GI50 [30]: > 100 µM
- TGI [30]: > 100 µM
- GI50 [31]: > 100 µM
- TGI [31]: > 100 µM
- GI50 [32]: > 100 µM
- TGI [32]: > 100 µM
- GI50 [33]: > 100 µM
- TGI [33]: > 100 µM
- GI50 [34]: > 100 µM
- TGI [34]: > 100 µM
- GI50 [35]: > 100 µM
- TGI [35]: > 100 µM
- GI50 [36]: > 100 µM
- TGI [36]: > 100 µM
- GI50 [37]: > 100 µM
- TGI [37]: > 100 µM
- GI50 [38]: > 100 µM
- TGI [38]: > 100 µM
- GI50 [39]: > 100 µM
- TGI [39]: > 100 µM
- GI50 [40]: > 100 µM
- TGI [40]: > 100 µM
- GI50 [41]: > 100 µM
- TGI [41]: > 100 µM
- GI50 [42]: > 100 µM
- TGI [42]: > 100 µM
- GI50 [43]: > 100 µM
- TGI [43]: > 100 µM
- GI50 [44]: > 100 µM
- TGI [44]: > 100 µM
- GI50 [45]: > 100 µM
- TGI [45]: > 100 µM
- GI50 [46]: > 100 µM
- TGI [46]: > 100 µM
